Publication PMC11956013, “Structure–Activity Relationships and Evaluation of 2-(Heteroaryl-cycloalkyl)-1H-indoles as Tauopathy Positron Emission Tomography Radiotracers” (Journal of Medicinal Chemistry, 2025)

Sequences of proteins named here, by UniProt entry; tags and fusion partners are left off. A change or cut given only in a name is not applied to a line headed by its entry.
UniProt P28222, whole entry: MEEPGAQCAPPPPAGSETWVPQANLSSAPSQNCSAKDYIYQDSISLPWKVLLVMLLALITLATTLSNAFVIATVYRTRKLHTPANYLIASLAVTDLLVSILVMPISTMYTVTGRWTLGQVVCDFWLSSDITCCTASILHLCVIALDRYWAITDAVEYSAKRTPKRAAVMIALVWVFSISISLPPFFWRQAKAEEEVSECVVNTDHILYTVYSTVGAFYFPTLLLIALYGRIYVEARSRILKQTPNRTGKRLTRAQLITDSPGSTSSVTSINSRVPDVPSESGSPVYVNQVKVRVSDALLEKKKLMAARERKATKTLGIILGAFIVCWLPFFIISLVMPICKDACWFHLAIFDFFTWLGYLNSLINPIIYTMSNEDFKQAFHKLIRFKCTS
UniProt Q9Y5N1: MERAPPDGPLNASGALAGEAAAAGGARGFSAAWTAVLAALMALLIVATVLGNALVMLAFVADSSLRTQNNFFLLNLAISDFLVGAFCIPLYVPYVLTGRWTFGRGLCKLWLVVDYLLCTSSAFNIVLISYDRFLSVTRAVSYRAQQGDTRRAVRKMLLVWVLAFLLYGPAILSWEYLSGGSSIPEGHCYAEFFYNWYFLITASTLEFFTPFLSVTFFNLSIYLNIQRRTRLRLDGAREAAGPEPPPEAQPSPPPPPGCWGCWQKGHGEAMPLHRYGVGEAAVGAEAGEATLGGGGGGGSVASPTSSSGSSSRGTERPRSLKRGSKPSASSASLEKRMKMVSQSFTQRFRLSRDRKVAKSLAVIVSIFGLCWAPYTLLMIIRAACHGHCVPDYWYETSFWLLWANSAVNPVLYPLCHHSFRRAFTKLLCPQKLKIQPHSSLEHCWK
UniProt P34972, whole entry: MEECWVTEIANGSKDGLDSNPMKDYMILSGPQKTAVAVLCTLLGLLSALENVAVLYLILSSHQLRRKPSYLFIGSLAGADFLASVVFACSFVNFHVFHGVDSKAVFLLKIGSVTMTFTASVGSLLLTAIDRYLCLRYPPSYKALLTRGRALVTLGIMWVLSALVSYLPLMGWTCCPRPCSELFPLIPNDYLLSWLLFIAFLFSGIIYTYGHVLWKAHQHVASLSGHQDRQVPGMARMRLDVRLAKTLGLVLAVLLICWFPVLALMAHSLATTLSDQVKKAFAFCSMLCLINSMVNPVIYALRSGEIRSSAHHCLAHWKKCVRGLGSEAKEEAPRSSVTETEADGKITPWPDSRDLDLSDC
UniProt P31645, whole entry: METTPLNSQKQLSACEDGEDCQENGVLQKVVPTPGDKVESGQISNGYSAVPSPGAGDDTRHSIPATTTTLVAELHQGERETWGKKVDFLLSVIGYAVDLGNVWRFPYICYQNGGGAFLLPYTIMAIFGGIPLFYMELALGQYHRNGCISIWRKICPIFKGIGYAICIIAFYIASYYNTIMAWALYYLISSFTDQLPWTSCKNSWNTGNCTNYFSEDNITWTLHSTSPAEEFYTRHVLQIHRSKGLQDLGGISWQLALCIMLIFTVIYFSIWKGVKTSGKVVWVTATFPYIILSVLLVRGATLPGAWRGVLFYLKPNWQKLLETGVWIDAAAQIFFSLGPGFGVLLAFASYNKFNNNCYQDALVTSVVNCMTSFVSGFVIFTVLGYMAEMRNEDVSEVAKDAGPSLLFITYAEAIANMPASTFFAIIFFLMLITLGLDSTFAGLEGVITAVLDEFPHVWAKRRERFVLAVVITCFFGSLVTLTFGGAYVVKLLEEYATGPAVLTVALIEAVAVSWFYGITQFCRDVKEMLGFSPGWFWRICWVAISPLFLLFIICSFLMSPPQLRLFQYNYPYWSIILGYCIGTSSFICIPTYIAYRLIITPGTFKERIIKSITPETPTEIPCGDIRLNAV

How the values were obtained:
5-HT1B (h) = 5-HT1B (h) (Homo sapiens, UniProt P28222); assay: Eurofins panel: 5-HT1B (h) (antagonist radioligand); details: reference compound
H3 (h) = H3 (h) (Homo sapiens, UniProt Q9Y5N1); details: Specific binding; reference compound
CB2 (h) = CB2 (h) (Homo sapiens, UniProt P34972); assay: CB2 (h) (agonist radioligand), Eurofins assay 37; details: Specific binding; reference compound
5-HT transporter (h) = 5-HT transporter (h) (Homo sapiens, UniProt P31645); assay: Eurofins panel: 5-HT transporter (h) (antagonist radioligand); details: reference compound
A2B (h) = target: T1, A2B (h) (Homo sapiens, UniProt P29275); assay: Eurofins panel: A2B (h) (antagonist radioligand); details: reference compound
T1 sequence (P29275 1-332): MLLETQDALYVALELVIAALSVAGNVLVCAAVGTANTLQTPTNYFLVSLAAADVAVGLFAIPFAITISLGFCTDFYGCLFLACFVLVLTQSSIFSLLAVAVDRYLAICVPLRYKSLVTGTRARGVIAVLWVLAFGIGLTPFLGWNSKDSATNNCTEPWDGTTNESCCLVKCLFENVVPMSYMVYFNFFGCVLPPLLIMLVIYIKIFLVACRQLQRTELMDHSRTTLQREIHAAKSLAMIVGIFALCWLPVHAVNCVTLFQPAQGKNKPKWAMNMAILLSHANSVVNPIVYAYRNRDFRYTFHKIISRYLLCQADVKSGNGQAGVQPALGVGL

In the case of NCCc1c[nH]c2ccc(O)cc12 [Serotonine], the “nH, Specific binding” value (5-HT1B (h)) is reported as 1.521.
Molecule C[C@@H](N)Cc1cnc[nH]1 [(R)alpha -Me-histamine] has a nH (H3 (h)) of 1.076.
Molecule Cc1c(C(=O)c2cccc3ccccc23)c2cccc3c2n1[C@H](CN1CCOCC1)CO3 [WIN 55212-2] has a nH (CB2 (h)) of 1.321.
CN(C)CCCN1c2ccccc2CCc2ccccc21 [imipramine] was tested, and the “nH, Specific binding” value (5-HT transporter (h)) was 0.9241.
With CCNC(=O)[C@H]1O[C@@H](n2cnc3c(N)ncnc32)[C@H](O)[C@@H]1O [NECA] the “nH, Specific binding” value (A2B (h)) was 1.052.
